Literature values in patent US9854807B2, “Potentiation of fixed coppers and other pesticides containing copper and supplementing plant nutrition” (priority 2014, dated 2018).

Conditions: terms used by Richardson

For Basic Copper(2) sulphate, the solubility in water is listed as “insoluble in water”.
